pIC50: −log10 of the molar value.
Legend:
[1] = target: cloned human NMB-preferring receptor (BB1) (Homo sapiens, UniProt P28336); experiment: BB1 binding assay, [125I][Tyr4]bombesin competition on membranes of CHO-K1 cells; settings: read-out: BB1 IC50, Table 2, N-acyl derivatives of Intermediate VIa, 60 minutes
Excerpt: (§1) The compounds of the invention have been evaluated in receptor binding assays which measure their affinity in a cloned human NMB-preferring receptor (BB1) assay and in a cloned human GRP-preferring receptor (BB2) assay. […]
(§2) In the following experiments, measurement of BB1 and BB2 binding was as follows. CHO-K1 cells stably expressing cloned human NMB (for (BB1 assay) and GRP receptors (for BB2 assay) were routinely grown in Ham's F12 culture medium supplemented with 10% foetal calf serum and 2 mM glutamine. For binding experiments, cells were harvested by trypsinization, and stored frozen at −70° C. in Ham's F12 culture medium containing 5% DMSO until required. On the day of use, cells were thawed rapidly, diluted with an excess of culture medium, and centrifuged for 5 minutes at 2000 g. Cells were resuspended in 50 mM Tris-HCl assay buffer (pH 7.4 at 21° C., containing 0.02% BSA, […] bacitracin, […] chymostatin, […] leupeptin, and 2 mM phosphoramidon), counted, and polytronned (setting 5, 10 sec) before centrifuging for 10 minutes at 28,000 g. […] Radioactivity bound was determined using a gamma counter.
(§3) All competition data was analysed using nonlinear regression utilising iterative curve-plolting procedures in Prism® (GraphPad Software Inc., San Diego, USA). […]

By UniProt entry, the sequences of proteins in these tests, tags left out.
UniProt P28336, whole entry: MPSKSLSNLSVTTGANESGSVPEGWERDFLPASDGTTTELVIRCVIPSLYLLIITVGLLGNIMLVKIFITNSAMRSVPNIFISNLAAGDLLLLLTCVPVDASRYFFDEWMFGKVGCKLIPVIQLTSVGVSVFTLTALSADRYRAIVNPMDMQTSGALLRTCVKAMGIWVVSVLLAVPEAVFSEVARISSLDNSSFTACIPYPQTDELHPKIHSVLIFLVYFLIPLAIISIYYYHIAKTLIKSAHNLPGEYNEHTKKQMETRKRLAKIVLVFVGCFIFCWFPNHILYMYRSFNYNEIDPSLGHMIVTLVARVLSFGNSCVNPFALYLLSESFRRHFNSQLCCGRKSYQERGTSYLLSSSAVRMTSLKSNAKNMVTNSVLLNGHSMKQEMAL
UniProt P30550, whole entry: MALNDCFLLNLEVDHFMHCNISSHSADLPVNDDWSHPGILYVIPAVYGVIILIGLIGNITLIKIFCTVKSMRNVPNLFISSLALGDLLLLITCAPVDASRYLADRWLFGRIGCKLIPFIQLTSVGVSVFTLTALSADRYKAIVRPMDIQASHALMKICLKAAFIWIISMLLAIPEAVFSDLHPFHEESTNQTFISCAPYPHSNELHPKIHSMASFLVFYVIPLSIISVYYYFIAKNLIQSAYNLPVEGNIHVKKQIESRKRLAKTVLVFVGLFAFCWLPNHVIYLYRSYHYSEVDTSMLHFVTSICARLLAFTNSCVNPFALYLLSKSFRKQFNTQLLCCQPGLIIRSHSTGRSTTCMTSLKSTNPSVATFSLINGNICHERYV

[2] = target: cloned human GRP-preferring receptor (BB2) (Homo sapiens, UniProt P30550); experiment: BB2 binding assay, [125I][Tyr4]bombesin competition on membranes of CHO-K1 cells; settings: read-out: BB2 IC50, Table 2, N-acyl derivatives of Intermediate VIa, 90 minutes
Excerpt: as §1, §2, §3

pIC50 [1]	pIC50 [2]	Compound
6.15	< 5.00	CN(C)c1ccccc1C(=O)N[C@@](C)(Cc1c[nH]c2ccccc12)C(=O)NCC1(c2ccccn2)CCCCC1
	< 5.00	CN(C)c1cccc(C(=O)N[C@@](C)(Cc2c[nH]c3ccccc23)C(=O)NCC2(c3ccccn3)CCCCC2)c1
